This is a selection; strong and weak results do not stand in their true shares. Some salts and complexes are drawn in separate pieces, as the source files them; their charges need not balance. Calls of active or inactive are those of the source.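 The calls were made as follows: active = inhibition above 30.3% in the primary screen of four-compound pools, then above 30% when the compound was retested; inconclusive = passed the primary limit but could not be retested; inactive = the rest.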

These results are taken from PubChem BioAssay AID1242 (PCMD, 2008).

The nature of the assay: Candida albicans biofilm persister killing – 4-compound mixtures, primary screen (AID 1242).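 Also: compounds exposed to preformed 24 h biofilms for 48 h; 0% = untreated biofilm control and 100% = clotrimazole plus chlorhexidine kill blank.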 The following applies: C. albicans biofilm persisters + clotrimazole, fluorescence viability; primary screen in compound mixtures of four per well; at 7.6 µM; hits give high values.
In general, inhibition refers to the relative decrease from the control value, in per cent. `CCNC(=S)/N=C(\N)N[N+](=O)[O-]`: the inhibition is inactive: 8.97%.
Take `O=C(NC1CCS(=O)(=O)C1)NP(=S)(Oc1ccccc1)Oc1ccccc1` (stereo not given): the inhibition is inactive: 19.5%.
`Cc1ccc(NP(=O)(Oc2cccc(C)c2)Oc2cccc(C)c2)nc1`: the inhibition is inactive: 7.51%.
As for `c1ccc(-c2nn[nH]n2)c(-c2nn[nH]n2)c1`, the figure is inactive: 20.1%; as for `CCOC(=O)c1ccc(NP(C)(=O)Oc2ccc(F)cc2)cc1` (stereo not given), inactive: 18%; as for `COc1ccc(OP(C)(=O)Nc2ccc(SC(F)(F)F)cc2)cc1` (stereo not given), inactive: 5.99%.
As for `CC(=O)NC(SC(=S)N(CC(C)C)CC(C)C)C(Cl)(Cl)Cl` (stereo not given), the figure is inactive: 10.9%; as for `Cc1ccc(OP(=O)(Nc2ccccn2)Oc2ccc(C)cc2)cc1`, inactive: -1.41%; as for `CCN(CC)CCCOC(=O)C(O)(c1ccccc1)C1CCCCC1` (stereo not given), inactive: 15.8%.
`O=c1c2cc([N+](=O)[O-])ccc2[nH]c2c([N+](=O)[O-])cc([N+](=O)[O-])cc12`: the inhibition was inactive: 24%.
`CCCCCOc1ccc(NP(C)(=O)Oc2ccc(Cl)cc2Cl)cc1` (stereo not given): the inhibition is inactive: 3.32%.
Regarding `CN(C)C(=O)Oc1noc2ccccc12`, the inhibition was inactive: 30.9%.
Consider `Cc1ccccc1OP(=O)(Nc1ccccn1)Oc1ccccc1C`, for which the inhibition was inactive: 22.6%.
On to `CCOc1ccc(C2=NCC(CBr)S2)cc1` (stereo not given), for which the inhibition was inactive: 8.53%.
`CC(C)c1ccc(OP(C)(=O)Nc2ccc(SC(F)(F)F)cc2)cc1` (stereo not given): the inhibition was inactive: 6.71%.
The same measure for `CC(C)(C)C(=O)NC(Sc1ccccc1)C(Cl)(Cl)Cl` (stereo not given): inactive: 11.8%; for `O=C(OC1CN2CCC1CC2)c1ccc([N+](=O)[O-])cc1` (stereo not given): inactive: 15.1%; for `C[C@H]1OP(=O)(Oc2ccccc2)C[C@@H]2O[C@@H]21` (stereo not given in full): inactive: 19.8%.
With `C[C@@H]1C=CCP(=O)(Oc2ccccc2)O1` (stereo not given in full), the inhibition is inactive: 16.3%.
In the case of `O=C(OCCN1CCN(CCOCc2ccccc2)CC1)C(O)(c1ccccc1)c1ccccc1`, the inhibition was inactive: 13.1%.
With `CC(=O)Nc1ccc(Oc2c([N+](=O)[O-])cc([N+](=O)[O-])cc2[N+](=O)[O-])cc1`, the inhibition was inactive: 11.9%.
Take `CC(=O)Nc1ccc([As](=O)(O)O)c(O)c1`: the inhibition is inactive: 16.9%.
As for `COc1ccc2c(c1O)-c1c(O)c(OC)cc3c1[C@H](C2)[N+](C)(C)CC3.O=[N+]([O-])c1cc([N+](=O)[O-])c([O-])c([N+](=O)[O-])c1[O-]`, the figure is inactive: 9.65%.
`CP(=O)(Nc1ccc(SC(F)(F)F)cc1)Oc1ccc(F)cc1` (stereo not given): the inhibition was inactive: 29.7%.
With `CC(C)C(=O)NC(Sc1ccccc1)C(Cl)(Cl)Cl` (stereo not given), the inhibition was inactive: 1.17%.
In the case of `O=P(Nc1ccccn1)(c1ccc(Br)cc1)c1ccc(Br)cc1`, the inhibition was inactive: 17%.
With `C[C@H]1OP(=O)(Oc2ccccc2)[C@H](O)[C@H](O)[C@H]1N=[N+]=[N-]` (stereo not given in full), the inhibition was inactive: 19.1%.
Take `O=P(Nc1nc2ccccc2s1)(c1ccccc1)c1ccccc1`: the inhibition was inactive: 20.6%.
For `COc1ccc(NP(C)(=O)Oc2ccccc2OC)cc1` (stereo not given), the inhibition is inactive: 22.2%.
As for `CC(=O)NC(SC(=S)N(C)C)C(Cl)(Cl)Cl` (stereo not given), the inhibition was inactive: 12.3%.
In the case of `O=[N+]([O-])c1ccc(OP2(=O)COCCO2)cc1` (stereo not given), the inhibition is inactive: 18.4%.
As to `O=[N+]([O-])c1ncn(CCn2cnc([N+](=O)[O-])n2)n1`, the inhibition is inactive: 3.62%.
For the molecule `Cc1cc(-c2cccc3ccccc23)c(C)cn1.O=[N+]([O-])c1cc([N+](=O)[O-])c(O)c([N+](=O)[O-])c1`, the inhibition is inactive: 13.9%.
For `O=[N+]([O-])c1cc([N+](=O)[O-])c(NCC2CCS(=O)(=O)C2)c([N+](=O)[O-])c1` (stereo not given), the inhibition is inactive: 9.8%.
As for `O=[As](O)(c1ccccc1)c1ccc(O)cc1`, the figure is inactive: 19.3%; as for `C(Cc1nn[nH]n1)Cc1nn[nH]n1`, inactive: 13%; as for `Nc1ccc([As](=O)(O)c2ccc([N+](=O)[O-])cc2)cc1`, inactive: 11.1%.
For `O=C(Nc1cc([As](=O)(O)O)ccc1O)c1ccccc1`, the inhibition is inactive: 11.9%.
As to `CCOC(=O)c1ccc(NP(C)(=O)Oc2ccc(Cl)cc2)cc1` (stereo not given), the inhibition was inactive: 9.76%.
The same measure for `CC(C)(C)C(=O)NC(Sc1ccncn1)C(Cl)(Cl)Cl` (stereo not given): inactive: 14.8%; for `O=[N+]([O-])c1ncn(CCn2ncnc2[N+](=O)[O-])n1`: inactive: 15.3%.
The same measure for `O=[N+]([O-])c1cccc(NC2=NCC(CBr)S2)c1` (stereo not given): inactive: 12.6%.
Regarding `O=C(O)CNc1ccc([As](=O)(O)O)cc1`, the inhibition is inactive: 9.72%.
The same measure for `COc1ccc(OP(C)(=O)Nc2ccc(Br)cc2)cc1` (stereo not given): inactive: 9.21%; for `COc1ccc(C2=NCC(CBr)S2)cc1` (stereo not given): inactive: 15.4%; for `O=C(OCCCN1CCCC1)C(O)(c1ccccc1)C1CCCCC1` (stereo not given): inactive: 6.48%.
Turning to `CCc1ccc(OP(C)(=O)Nc2cccnc2)cc1` (stereo not given), the inhibition was inactive: 9.99%.
In the case of `O=[N+]([O-])c1cc([N+](=O)[O-])c(CCNc2ccccc2)c([N+](=O)[O-])c1`, the inhibition was inactive: 19.8%.
The same measure for `Cc1ccc(NP(=O)(Oc2ccccc2)Oc2ccccc2)nc1`: inactive: 9.16%; for `C[N+]1=C2C=CC=CC=C2SC12C([N+](=O)[O-])=CC([N+](=O)[O-])=C[C-]2[N+](=O)[O-]` (stereo not given): inactive: 17.4%; for `COc1ccccc1OP(C)(=O)Nc1ccccc1Br` (stereo not given): inactive: 12.8%.
For the molecule `Nc1ccc([As](=O)(O)c2ccc(N)cc2)cc1`, the inhibition is inactive: -1.23%.
For the molecule `CCN(/C(=N/P(=O)(N1CCOCC1)N1CCOCC1)N1CCOCC1)c1ccc(OC)cc1`, the inhibition is inactive: 20.7%.
`CN(C)C(=O)OCCc1n(C)cc[n+]1C`: the inhibition is inactive: 10.6%.
The same measure for `CN(C)C(=O)c1c([N+](=O)[O-])cc([N+](=O)[O-])cc1[N+](=O)[O-]`: inactive: 10.6%.
As for `CC(C)=N/N=C(\N)N[N+](=O)[O-]`, the inhibition is inactive: 14.9%.
As to `NC(=O)c1cc([N+](=O)[O-])cc([N+](=O)[O-])c1N`, the inhibition is inactive: 5.53%.
On to `Cc1ccc(N/C(=N/P(=O)(N2CCOCC2)N2CCOCC2)N2CCOCC2)cc1`, for which the inhibition is inactive: 1.79%.
Consider `COc1ccccc1OP(C)(=O)Nc1ccc(Br)cc1` (stereo not given), for which the inhibition is inactive: 22%.
As for `Cc1ccc(OP(=O)(Nc2nccs2)Oc2ccc(C)cc2)cc1`, the figure is inactive: 30.6%; as for `COc1ccccc1OP(=O)(Nc1ccc(C)cn1)Oc1ccccc1OC`, inactive: -6.9%.
For the molecule `CN1CCCC(OC(=O)C(c2ccccc2)c2ccccc2)C1` (stereo not given), the inhibition was inactive: -9.95%.
As for `Clc1ccc(Cl)c(NC2=NCC(CBr)S2)c1` (stereo not given), the figure is inactive: -0.69%.
With `Nc1cc(N)c2nonc2c1[N+](=O)[O-]`, the inhibition was inactive: 18.8%.
As for `O=[N+]([O-])c1cc([N+](=O)[O-])c(Nc2ccccn2)c([N+](=O)[O-])c1`, the inhibition is inactive: 32.1%.
As for `O=C(NC(Sc1ccncn1)C(Cl)(Cl)Cl)c1ccccc1` (stereo not given), the figure is inactive: 13.5%.
Consider `CC(=O)Nc1ccc([As](=O)(O)O)cc1`, for which the inhibition was inactive: 17.9%.
As for `O=C(O)c1ccccc1[As](=O)(O)O`, the figure is inactive: -4.98%.
The same measure for `O=P(Nc1nc2ccc(Cl)cc2s1)(c1ccccc1)c1ccccc1`: inactive: 18.5%; for `Cc1cc(C)cc(OP(C)(=O)Nc2cccc(C(F)(F)F)c2)c1` (stereo not given): inactive: 20%.
For `Cc1ccc(NP(=O)(Oc2ccccc2F)Oc2ccccc2F)nc1`, the inhibition is inactive: 24.3%.
Take `Cc1cc(SC(NC(=O)c2ccc(F)cc2)C(Cl)(Cl)Cl)ncn1` (stereo not given): the inhibition was inactive: 12.7%.
In the case of `CCOP(=O)(Nc1ccccc1)OCC`, the inhibition was inactive: 11.9%.
The same measure for `COc1ccc(OP(C)(=O)Nc2ccccc2Br)cc1` (stereo not given): inactive: 14.1%; for `CCN(N=Nc1nonc1N)c1nonc1N`: inactive: 13.2%.
The same measure for `CP(=O)(Nc1ccc(Cl)cc1Cl)Oc1ccccc1` (stereo not given): inactive: 6.8%.
Consider `CP(=O)(OCCOc1ccccc1)OCCOc1ccccc1`, for which the inhibition was inactive: 17.2%.
Consider `Nc1cccc2ccc([As](=O)(O)O)cc12`, for which the inhibition was inactive: 12.9%.
For `C[As](=O)(O)c1cccc(C(=O)O)c1`, the inhibition was inactive: 2.88%.
As for `O=[As](O)(c1ccc(O)cc1)c1ccccc1O`, the figure is inactive: 8.2%.
Take `O=[N+]([O-])c1ccc2c(c1)C=Nc1ccccc1O2`: the inhibition was inactive: 6.32%.
For the molecule `Cc1ccc2nc3c(c(C)c2c1)CC(C(Cl)Cl)S3` (stereo not given), the inhibition is inactive: 6.07%.
`Cc1cccc(C)c1OP(C)(N)=O` (stereo not given): the inhibition was inactive: 12.4%.
Consider `Cc1ccc(OP(=O)(Nc2ccc([N+](=O)[O-])cn2)Oc2ccc(C)cc2)cc1`, for which the inhibition is inactive: 20.2%.
As to `CC(C)(C)c1ccc(OP(C)(=O)Nc2ccc(SC(F)(F)F)cc2)cc1` (stereo not given), the inhibition is inactive: 5.57%.
The same measure for `CC(C)c1ccc(OP(=O)(Nc2ccccn2)Oc2ccccc2F)cc1` (stereo not given): inactive: 26.9%; for `ClCCSc1nnc(-c2cccnc2)o1`: inactive: 19.8%.
On to `CCOC(=O)c1ccc(NP(C)(=O)Oc2ccccc2)cc1` (stereo not given), for which the inhibition was inactive: 11.7%.
The same measure for `Cc1cc(C)cc(OP(C)(N)=O)c1` (stereo not given): inactive: 8.44%; for `O=[N+]([O-])c1cc([N+](=O)[O-])c(-c2ccn[nH]2)s1`: inactive: 13.6%; for `COc1ccccc1OP(C)(=O)Nc1cc(Cl)ccc1C` (stereo not given): inactive: 15%.
As to `CC(C)NC(=O)NP(=O)(Oc1ccccc1)Oc1ccccc1`, the inhibition is inactive: 10.5%.
Turning to `Cc1cc(=O)[nH]c(N[N+](=O)[O-])n1`, the inhibition is inactive: 18%.
Take `CCN(CC)CCCOC(=O)C(O)(c1ccccc1)c1ccccc1`: the inhibition is inactive: 24.3%.
For the molecule `Cc1c2c(nc3ccccc13)SC(C(Cl)Cl)C2` (stereo not given), the inhibition is inactive: 27.8%.
Turning to `COc1cc(I)ccc1[As](=O)(O)O`, the inhibition is inactive: 8.68%.
For `COc1ccc2nc(NP(=O)(c3ccccc3)c3ccccc3)sc2c1`, the inhibition is inactive: 14.9%.
The same measure for `COc1ccc(N/C(=N/P(=O)(N2CCOCC2)N2CCOCC2)N2CCOCC2)cc1`: inactive: 9.25%.
Regarding `CP(=O)(Oc1ccccc1)OC(c1ccccc1)C(F)(F)F` (stereo not given), the inhibition is inactive: 7.72%.
Consider `Cc1cccc(C)c1OP(C)(=O)Nc1ccc(SC(F)(F)F)cc1` (stereo not given), for which the inhibition is inactive: 9.7%.
